Test results taken from publication PMC9610617, “Anti-HIV Ermiasolides from Croton megalocarpus” (Molecules, 2022).

Test system: HIV-1IIIB
Assay: Anti-HIV activity: inhibition of HIV-induced cytopathic effect in infected MT-4 cells (MTT)
Format: cell-based, Human immunodeficiency virus type 1
Conditions: ratio CC50 (MT-4) / IC50 (HIV-1IIIB)
Protocol: Human immunodeficiency virus type 1 (HIV-1IIIB) strain was obtained from the NIH HIV Reagent Program, Division of AIDS, NIAID, NIH. Dr. Robert Gallo donated human immunodeficiency virus-1 IIIB (ARP-398). HIV-1IIIB is highly capable of replicating in human T cell lines and appears to be well adapted for in vitro culture in T cells. The frozen HIV-1IIIB vials were thawed by immersion in room temperature water, and the vial was swirled until viruses were thawed. Then, 400 µL of the virus was transferred to 75 cm^2 tissue culture flasks (T75) containing 10 mL of 1 × 10^5 pelleted MT4 cells/mL, vortexed and incubated at 37 °C for 1 hr for virus adsorption. After 1 hr, 20 mL of RPMI-1640 was added gently and mixed with vortexing. […] The pelleted cells were then washed and resuspended in 30 mL RPMI 1640 with L-glutamine and 20% fetal bovine serum in a T75 flask, incubated at 37 °C and monitored for the development of cytopathic effects (CPEs).
The virus infectivity test was performed to determine the infectious titer of the virus, which can cause cytopathic effects (CPE) in tissue culture over a reasonable period of 3 to 10 days while cells in culture remain viable. In addition, this procedure was performed to quantify the amount of virus required to produce a cytopathic effect in 50% of cell culture replicates (TCID50). […] The TCID50 was then calculated as described by. […]

Which “SI, selective index” value does the source give for `C[C@H](Cn1cnc2c(N)ncnc21)OCP(=O)(O)O` [TDF, tenofovir] here?
Its value is 176.5.
